IC50 and inhibition data for two molecules are collected here from patent EP1144368B1, “ACETYLENIC ALPHA-AMINO ACID-BASED SULFONAMIDE HYDROXAMIC ACID TACE INHIBITORS” (priority 1999, dated 2000).

Structures are written as SMILES. pIC50: −log10 of the molar value.

In one assay the target is T1, MMP-1 (Homo sapiens, UniProt P03956).
T1 sequence (P03956 100-469): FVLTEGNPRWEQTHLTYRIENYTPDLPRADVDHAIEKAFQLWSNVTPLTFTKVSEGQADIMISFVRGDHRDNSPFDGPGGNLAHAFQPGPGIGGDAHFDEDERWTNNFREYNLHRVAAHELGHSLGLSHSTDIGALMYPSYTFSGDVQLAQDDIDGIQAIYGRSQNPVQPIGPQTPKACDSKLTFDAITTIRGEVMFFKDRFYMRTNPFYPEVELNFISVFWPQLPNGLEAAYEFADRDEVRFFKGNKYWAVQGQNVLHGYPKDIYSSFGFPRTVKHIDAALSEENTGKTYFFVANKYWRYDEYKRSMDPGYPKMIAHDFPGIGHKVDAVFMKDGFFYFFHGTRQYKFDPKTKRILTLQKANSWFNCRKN
Briefly: MMP-1 inhibition (thiopeptide or fluorescent peptide substrate). The format is biochemical.

In a further assay the test system is THP-1 cells. Briefly: THP-1 Soluble Protein Assay (LPS-stimulated; ELISA of TNF-a, TNF-R p75/80, TNF-R p55/60, IL-8). The note with it: Homo sapiens, THP-1, read-out: THP % Inhibition @ 3µM. It is filed as cell-based.

By pIC50 is commonly meant −log10 of the IC50, conventionally taken in molar units. As for `CC#CCOc1ccc(S(=O)(=O)N(C)C(CSCc2cccnc2)C(=O)NO)cc1` (centres unmarked) [Example 155, 2-[(4-But-2-ynyloxy-benenesulfonyl)-methyl-amino]-N-hydroxy-3-(pyridin-3-ylmethylsulfanyl)-butyramide], on MMP-1, the pIC50 was 7.21.
For orientation: inhibition means the change of the read-out against control, counted positive when it falls. Consider `CC#CCOc1ccc(S(=O)(=O)N2CCN(Cc3ccccc3)CCC2C(=O)NO)cc1` (centres unmarked) [Example 290, 1-Benzyl-4-{[4-(2-butynyloxy)phenyl]sulfonyl}-N-hydroxy-1,4-diazepane-5-carboxamide], for which the inhibition at 3 µM with THP-1 cells was determined as 45%.
